The source of these data is US8138145B2, “Hybrid oligomers, their preparation process and pharmaceutical compositions containing them” (Centre National de la Recherche Scientifique (SNRS), priority 2005, dated 2012).

The structures appear in SMILES notation. Converted amounts (≈) assume the structure as drawn.

Test [1] has as its system Escherichia Coli ATCC 25922. It counts as cell-based. Particulars: Mueller-Hinton broth, 37° C., 18 to 20 hours. As for the experimental part:
(§1) Four strains were selected: Escherichia Coli ATCC 25922, Staphylococcus Aureus ATCC 25923, Pseudomonas Aeruginosa ATCC 27853 and a clinical isolated methicillin resistant Staphylococcus Aureus strain. Antibacterial activity of the molecules was tested by dilution method in Mueller-Hinton broth in order to determine the minimal inhibitory concentration (MIC) and the minimal bactericidal concentration (MBC). At least two independent assays were done. Stock solutions were obtained by solubilizing molecule powders in distilled water at concentration of 2.56 mg/mL and serial 2-fold diluted solutions were prepared. Bacterial inoculum was standardized by using direct suspensions of colonies from overnight growth in saline adjusted to a turbidity matching the 0.5 McFarland standard, and diluted to obtain a density comprised between 10^5 CFU/mL and 10^7 CFU/mL. Tubes containing 900 μL of inoculum with 100 μL of molecules solutions were incubated in air at 37° C. for 18 to 20 hours. Purity and inoculum density as well as percentage of viable bacteria in limpid tubes were checked by plate counting on sheep blood agar. Broth not containing any molecule solution was inoculated with each selected bacterial strain as a control for organism viability (growth control). The susceptibility of S. Aureus strains against vancomycin was used as an internal control as well as the activity of melittin.

Test [2] relates to Staphylococcus Aureus ATCC 25923. The class given is cell-based. Particulars: Mueller-Hinton broth, 37° C., 18 to 20 hours. Here is the method:
as §1

Turning to `CC[C@H](C)[C@H](NC(=O)CN)C(=O)NCC(=O)N[C@@H](C)C(=O)N[C@H](C(=O)N[C@@H](CC(C)C)C(=O)N[C@@H](CCCCN)C(=O)N[C@H](C(=O)N[C@@H](CC(C)C)C(=O)N[C@H](C(=O)N[C@H](C(=O)NCC(=O)N[C@@H](CC(C)C)C(=O)N1CCC[C@H]1C(=O)N[C@@H](C)C(=O)N[C@@H](CC(C)C)C(=O)N[C@H](C(=O)N[C@@H](CO)C(=O)N[C@@H](Cc1c[nH]c2ccccc12)C(=O)N[C@H](C(=O)N[C@@H](CCCCN)C(=O)N[C@@H](CCCNC(=N)N)C(=O)N[C@@H](CCCCN)C(=O)N[C@@H](CCCNC(=N)N)C(=O)N[C@@H](CCC(N)=O)C(=O)N[C@@H](CCC(N)=O)C(N)=O)[C@@H](C)CC)[C@@H](C)CC)[C@@H](C)O)[C@@H](C)O)C(C)C)C(C)C` [mellitin, reference compound], the “Minimal inhibitory concentration, Escherichia Coli ATCC 25922” value in test [1] is over 256 µg/mL. The “Minimal inhibitory concentration, Staphylococcus Aureus ATCC” value in test [2] was determined as 32 µg/mL (≈ 11.2 µM). In addition, the “Minimal bactericidal concentration, Staphylococcus Aureus ATCC” value in test [2] (plate counting on sheep blood agar) is 128 µg/mL (≈ 45 µM).
